Values quoted from earlier work in patent US7345073B2, “Method for treating cryptorchidism” (Hormos Medical Ltd., priority 2003, dated 2008).

Tested on: cryptorchidism (non-descended testes)
Details: according to one study; cited from earlier work

With “hCG: human chorionic gonadotrophin, hormonal treatment of cryptorchidism” as the substance, how does the “efficacy in cases of true non-descended testes” value read?
Its value is “ineffective”.
